In ChEMBL document CHEMBL4138148, “Discovery of novel pyrrolo-pyridine/pyrimidine derivatives bearing pyridazinone moiety as c-Met kinase inhibitors” (Eur J Med Chem, 2017) one finds Ratio IC50 data, which are given here for one compound.

Test [1] is filed under the species Homo sapiens. Kind of test: Selectivity ratio of IC50 for VEGFR2 (unknown origin) to IC50 for c-MET (unknown origin).
For test [2], the species on record is Homo sapiens. Kind of test: Selectivity ratio of IC50 for EGFR (unknown origin) to IC50 for c-MET (unknown origin).
Test [3] is filed under the species Homo sapiens. Kind of test: Selectivity ratio of IC50 for cKIT (unknown origin) to IC50 for c-MET (unknown origin).
The species entered for test [4] is Homo sapiens. Kind of test: Selectivity ratio of IC50 for FLT3 (unknown origin) to IC50 for c-MET (unknown origin).

In the case of `O=C(Nc1ccc(Oc2ccnc3[nH]ccc23)cc1)c1nn(-c2ccc(Cl)c(C(F)(F)F)c2)ccc1=O`, the Ratio IC50 was found to be 32.9 in the test listed under Homo sapiens [1], 137 in the test listed under Homo sapiens [2], 30.1 in the test listed under Homo sapiens [3] and 10.5 in the test listed under Homo sapiens [4].
